From US12564559B2, “Combinations of LSD1 inhibitors for use in the treatment of solid tumors” (Oryzon Genomics, S.A., priority 2016, dated 2026)

Tested on: SCLC cell lines
Assay: In vitro Synergy Score of combinations with the LSD1 inhibitor in expanded panel of SCLC cell lines, Example 3 / Table 5
Type: cell-based, human
Settings: for Synergy Scores of SCLC cell lines DMS-114: SCLC cell line DMS-114; for Synergy Scores of SCLC cell lines DMS-114 / Synergy Scores of SCLC cell lines NCI-H69 / Synergy Scores of SCLC cell lines NCI-H187 / Synergy Scores of SCLC cell lines NCI-H446 / Synergy Scores of SCLC cell lines NCI-H510 / Synergy Scores of SCLC cell lines NCI-H526 / Synergy Scores of SCLC cell lines NCI-H1417 / Synergy Scores of SCLC cell lines NCI-H1876 / Synergy Scores of SCLC cell lines NCI-H2171 / Synergy Scores of SCLC cell lines SHP-77: 2nd API combined with (trans)-N1-((1R,2S)-2-phenylcyclopropyl)cyclohexane-1,4-diamine, scores >6.4 considered significant; for Synergy Scores of SCLC cell lines NCI-H69: SCLC cell line NCI-H69; for Synergy Scores of SCLC cell lines NCI-H187: SCLC cell line NCI-H187; for Synergy Scores of SCLC cell lines NCI-H446: SCLC cell line NCI-H446; for Synergy Scores of SCLC cell lines NCI-H510: SCLC cell line NCI-H510; for Synergy Scores of SCLC cell lines NCI-H526: SCLC cell line NCI-H526; for Synergy Scores of SCLC cell lines NCI-H1417: SCLC cell line NCI-H1417; for Synergy Scores of SCLC cell lines NCI-H1876: SCLC cell line NCI-H1876; for Synergy Scores of SCLC cell lines NCI-H2171: SCLC cell line NCI-H2171; for Synergy Scores of SCLC cell lines SHP-77: SCLC cell line SHP-77; for synergy with LSD1 inhibition: combination with (trans)-N1-((1R,2S)-2-phenylcyclopropyl)cyclohexane-1,4-diamine, expanded panel of SCLC cell lines

SMILES | Synergy Scores of SCLC cell lines DMS-114 | Synergy Scores of SCLC cell lines NCI-H69 | Synergy Scores of SCLC cell lines NCI-H187 | Synergy Scores of SCLC cell lines NCI-H446 | Synergy Scores of SCLC cell lines NCI-H510 | Synergy Scores of SCLC cell lines NCI-H526 | Synergy Scores of SCLC cell lines NCI-H1417 | Synergy Scores of SCLC cell lines NCI-H1876 | Synergy Scores of SCLC cell lines NCI-H2171 | Synergy Scores of SCLC cell lines SHP-77 | synergy with LSD1 inhibition
CC[C@H](C)n1cc(C)c2c(C(=O)NCc3c(C)cc(C)[nH]c3=O)cc(-c3ccc(N4CCNCC4)nc3)cc21 [GSK126, N-[(1,2-dihydro-4,6-dimethyl-2-oxo-3-pyridinyl)methyl]-3-methyl-1-[(1S)-1-methylpropyl]-6-[6-(1-piperazinyl)-3-pyridinyl]-1H-indole-4-carboxamide] | 0.51 | 1.63 | 0.35 | 0.41 | 12.69 | 3.20 | 0.41 | 10.80 | 0.80 | 0.02 | Synergy was also observed
Cc1sc2c(c1C)C(c1ccc(Cl)cc1)=N[C@@H](CC(N)=O)c1nnc(C)n1-2 [CPI-203, (6S)-4-(4-chlorophenyl)-2,3,9-trimethyl-6H-thieno[3,2-f][1,2,4]triazolo[4,3-a][1,4]diazepine-6-acetamide] | 1.58 | 8.68 | 1.24 | 0.58 | 25.41 | 11.09 | 13.47 | 15.25 | 6.83 | 0.37 | highly synergistic
CN(C)CC[C@H](CSc1ccccc1)Nc1ccc(S(=O)(=O)NC(=O)c2ccc(N3CCN(Cc4ccccc4-c4ccc(Cl)cc4)CC3)cc2)cc1[N+](=O)[O-] [ABT-737, 4-[4-[[2-(4-chlorophenyl)phenyl]methyl]piperazin-1-yl]-N-[4-[[(2R)-4-(dimethylamino)-1-phenylsulfanylbutan-2-yl]amino]-3-nitrophenyl]sulfonylbenzamide] | 0.42 | 4.01 | 4.17 | 1.73 | 11.80 | 11.44 | 25.26 | 19.84 | 3.15 | 1.88 | highly synergistic
CC1=C(C(=O)OC2CCCCC2)C(c2ccc([N+](=O)[O-])cc2)C2=C(CC(C)(C)CC2=O)N1 (stereo not shown) [FLI 06, Cyclohexyl 1,4,5,6,7,8-hexahydro-2,7,7-trimethyl-4-(4-nitrophenyl)-5-oxo-3-quinolinecarboxylate] | 5.48 | 4.01 | 1.71 | 3.29 | 0.83 | 2.18 | 0.28 | 6.95 | 1.76 | 6.32 | 
CC(C)c1ccccc1Cc1cc(C(=O)Nc2ccc(S(=O)(=O)c3ccccc3C(C)(C)C)cc2)c(O)c(O)c1O [TW-37, N-[4-[[2-(1,1-dimethylethyl)phenyl]sulfonyl]phenyl]-2,3,4-trihydroxy-5-[[2-(1-methylethyl)phenyl]methyl]-benzamide] | 0.59 | 2.23 | 0.57 | 0.28 | 6.95 | 3.60 | 8.08 | 0.86 | 0.72 | 0.45 | highly synergistic
CN1C(=O)[C@@H](NC(=O)[C@H](CCC(F)(F)F)[C@H](CCC(F)(F)F)C(N)=O)N=C(c2ccccc2)c2ccccc21 [BMS-906024, (2R,3S)-N-[(3S)-1-Methyl-2-oxo-5-phenyl-2,3-dihydro-1H-1,4-benzodiazepin-3-yl]-2,3-bis(3,3,3-trifluoropropyl)succinamide] | 0.02 | 8.46 | 0.45 | 0.12 | 0.00 | 5.80 | 0.33 | 0.22 | 0.19 | 0.03 | 
Cc1cc(/N=N/c2ccc(S(=O)(=O)Nc3ccccn3)cc2)c(N)cc1O [MS 436, 4-[(1E)-2-(2-amino-4-hydroxy-5-methylphenyl)diazenyl]-N-2-pyridinyl-benzenesulfonamide] | 0.18 | 3.82 | 0.06 | 0.42 | 5.52 | 15.84 | 12.37 | 5.74 | 1.37 | 0.23 | highly synergistic
COc1cc2c(cc1-c1c(C)noc1C)ncc1[nH]c(=O)n([C@H](C)c3ccccn3)c12 [GSK1210151A, 7,3,5-dimethyl-4-isoxazolyl-1,3-dihydro-8-methoxy-1-[1R-1-(2-pyridinyl)ethyl]-2H-imidazo[4,5-c]quinolin-2-one] | 0.67 | 10.38 | 1.77 | 0.32 | 15.35 | 12.65 | 15.13 | 11.42 | 10.11 | 0.66 | highly synergistic
CC(C)N(C[C@H]1O[C@@H](n2cnc3c(N)ncnc32)[C@H](O)[C@@H]1O)[C@H]1C[C@@H](CCc2nc3ccc(C(C)(C)C)cc3[nH]2)C1 (relative stereo) [EPZ-5676, 5′-deoxy-5′-[[cis-3-[2-[6-(1,1-dimethylethyl)-1H-benzimidazol-2-yl]ethyl]cyclobutyl](1-methylethyl)amino]-adenosine] | 0.00 | 0.70 | 0.11 | 0.24 | 19.72 | 1.20 | 0.87 | 6.68 | 0.05 | 0.12 | Synergy was also observed
